For 111 molecules, inhibition results are on record in PubChem BioAssay AID588352 (The Scripps Research Institute Molecular Screening Center, 2011).

The chains behind the UniProt entries cited, without tags or fusion partners.
UniProt Q9Y6Q9, whole entry, looked up: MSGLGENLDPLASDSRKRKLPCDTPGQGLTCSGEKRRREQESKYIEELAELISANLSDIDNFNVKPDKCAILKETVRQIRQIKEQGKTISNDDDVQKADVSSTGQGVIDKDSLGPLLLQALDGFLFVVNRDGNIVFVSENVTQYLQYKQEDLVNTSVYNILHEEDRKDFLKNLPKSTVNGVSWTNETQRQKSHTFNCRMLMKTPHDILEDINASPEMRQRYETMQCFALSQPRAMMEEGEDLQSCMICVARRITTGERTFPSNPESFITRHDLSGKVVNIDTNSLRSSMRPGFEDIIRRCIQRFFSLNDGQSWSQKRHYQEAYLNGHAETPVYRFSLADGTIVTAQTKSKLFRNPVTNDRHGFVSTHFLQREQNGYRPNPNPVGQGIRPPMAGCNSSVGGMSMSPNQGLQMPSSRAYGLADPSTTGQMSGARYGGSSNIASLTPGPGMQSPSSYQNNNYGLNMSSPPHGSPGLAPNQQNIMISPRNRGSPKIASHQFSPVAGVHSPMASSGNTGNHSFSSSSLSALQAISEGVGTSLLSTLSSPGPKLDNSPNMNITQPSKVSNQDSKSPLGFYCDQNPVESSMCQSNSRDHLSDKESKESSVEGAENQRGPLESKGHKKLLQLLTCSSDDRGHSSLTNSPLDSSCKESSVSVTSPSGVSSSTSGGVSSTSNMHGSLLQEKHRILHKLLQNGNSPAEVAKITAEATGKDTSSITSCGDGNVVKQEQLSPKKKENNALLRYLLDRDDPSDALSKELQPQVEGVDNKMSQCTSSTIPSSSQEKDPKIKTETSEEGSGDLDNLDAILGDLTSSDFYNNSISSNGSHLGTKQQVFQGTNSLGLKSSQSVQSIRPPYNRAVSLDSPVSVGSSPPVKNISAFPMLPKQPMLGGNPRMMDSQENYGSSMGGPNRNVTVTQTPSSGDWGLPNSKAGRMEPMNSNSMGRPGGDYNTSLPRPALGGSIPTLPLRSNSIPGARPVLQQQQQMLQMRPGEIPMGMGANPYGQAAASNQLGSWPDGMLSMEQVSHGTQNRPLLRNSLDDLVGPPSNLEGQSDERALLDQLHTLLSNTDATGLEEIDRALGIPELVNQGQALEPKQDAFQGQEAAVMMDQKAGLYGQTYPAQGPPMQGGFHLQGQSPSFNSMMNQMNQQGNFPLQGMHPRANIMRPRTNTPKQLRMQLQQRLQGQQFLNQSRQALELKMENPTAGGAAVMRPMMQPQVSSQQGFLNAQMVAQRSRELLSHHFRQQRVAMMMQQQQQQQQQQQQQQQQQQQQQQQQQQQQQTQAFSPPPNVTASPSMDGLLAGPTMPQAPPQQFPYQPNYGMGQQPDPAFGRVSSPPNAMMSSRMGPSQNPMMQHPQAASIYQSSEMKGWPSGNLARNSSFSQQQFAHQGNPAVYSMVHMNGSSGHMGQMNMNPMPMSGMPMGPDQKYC

Broadly, the inhibition is the drop in the measured response relative to a control, in per cent.

Structures are written as SMILES. Only a part is listed here, and it is no random draw. The source made the active and inactive calls.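 How the source made its calls: active means inhibition above a per-campaign cutoff, the mean of all compounds plus 3 SD (cut at about 60% in these data); inactive means the rest.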

This assay concerns the target Nuclear receptor coactivator 3 (Homo sapiens) (UniProt Q9Y6Q9). The assay can be described thus: NCOA3 GAL4-fusion reporter inhibition – cell-based, luminescence, primary screen (AID 588352).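 Further: 0% = DMSO-treated cells and 100% = gossypol-treated cells at 36 µM; higher means less SRC3-driven luciferase light from the GAL4 reporter.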 To be noted: HEK293 GAL4-SRC3 luciferase reporter, at 3.6 µM, active compounds read high. For orientation: Reporter assays use an easily measured gene product as a stand-in for the process of interest.
On to `CCNC(=S)/N=C(\N)N[N+](=O)[O-]`, for which the inhibition was inactive: 6.8%.

For `O=C(NC1CCS(=O)(=O)C1)NP(=S)(Oc1ccccc1)Oc1ccccc1` (stereo unspecified), the inhibition was inactive: 11.1%. As for `c1ccc(-c2nn[nH]n2)c(-c2nn[nH]n2)c1`, the figure is inactive: 3.09%. In the case of `Cc1ccc(NP(=O)(Oc2cccc(C)c2)Oc2cccc(C)c2)nc1`, the inhibition is inactive: 17.1%. As for `O=P1(N(CCCl)CCCl)OCCC2CCCCN21` (stereo unspecified), the figure is inactive: -18.8%. Then `O=[N+]([O-])c1ccc(O)c(/C=N/Nc2ccc([N+](=O)[O-])cc2[N+](=O)[O-])c1`, with inactive: -4.24%; and `O=[N+]([O-])c1ncn(CCn2cnc([N+](=O)[O-])n2)n1`, with inactive: 2.48%; and `CC(=O)NC(SC(=S)N(C)C)C(Cl)(Cl)Cl` (stereo unspecified), with inactive: 13.3%. As for `O=[As](O)(c1ccccc1)c1ccc(O)cc1`, the figure is inactive: 4.85%; as for `Nc1ccc([As](=O)(O)c2ccc([N+](=O)[O-])cc2)cc1`, inactive: 5.96%. Turning to `C(Cc1nn[nH]n1)Cc1nn[nH]n1`, the inhibition is inactive: -0.7%. For the molecule `O=C(OC1CN2CCC1CC2)c1cccc(Cl)c1` (stereo unspecified), the inhibition is inactive: -7.6%. As for `Nc1ccc(CCCCOc2ccccc2)cc1`, the figure is inactive: -31.6%; as for `COc1ccc(N)c([N+](=O)[O-])c1[N+](=O)[O-]`, inactive: -3.14%; as for `O=P(Nc1ccccn1)(c1ccc(Br)cc1)c1ccc(Br)cc1`, inactive: 8.93%. As to `CN(C)C1(CNC(=O)c2ccc(Cl)c(S(N)(=O)=O)c2)CCCCC1`, the inhibition is inactive: -2.02%. `O=P(Nc1nc2ccccc2s1)(c1ccccc1)c1ccccc1`: the inhibition was inactive: 12.5%. Then `C[C@H]1OP(=O)(Oc2ccccc2)[C@H](O)[C@H](O)[C@H]1N=[N+]=[N-]` (stereo partly specified), with inactive: -3.64%; and `CC(C)C(=O)NC(Sc1ccccc1)C(Cl)(Cl)Cl` (stereo unspecified), with inactive: 18.2%. In the case of `O=P(Nc1nccs1)(c1ccccc1)c1ccccc1`, the inhibition was inactive: 5.44%. As for `c1nnnn1CCn1cnnn1`, the inhibition is inactive: -25.1%.

Take `COc1ccccc1CNC(=O)COC(=O)C(O)(c1ccccc1)c1ccccc1`: the inhibition was inactive: -0.82%. In the case of `CC1(CBr)Cn2c(nc3ccccc3c2=O)S1` (stereo unspecified), the inhibition is inactive: -0.87%. As to `CC(C)/C=N\N=C(\N)N[N+](=O)[O-]`, the inhibition was inactive: -0.56%. `CN(C(=O)Cc1ccc(Cl)c(Cl)c1)[C@@H]1CCCC[C@H]1N1CCCC1`: the inhibition is inactive: 4.59%. Regarding `CN(CCCl)Cc1cc(Cl)c(NC2=NCCN2)c(Cl)c1`, the inhibition was inactive: -4.32%. As for `CCOP(=O)(Nc1ccc(C)cn1)OCC`, the inhibition is inactive: 2.61%. Then `O=P1(Nc2ccccn2)COc2ccccc2OC1`, with inactive: -12.1%; and `CCC1=CC2Cc3nc4ccc(Cl)cc4c(N)c3C(C1)C2` (stereo unspecified), with inactive: 11.7%; and `CCOP(=O)(NC(=NC(C)c1ccccc1)NC(C)c1ccccc1)OCC` (stereo unspecified), with inactive: 0.81%.

On to `O=P1(N(CCCl)CCCl)NCCC(C(F)(F)F)O1` (stereo unspecified), for which the inhibition was inactive: 14.4%. For the molecule `Clc1n[nH]nc1-c1nn[nH][15n]1`, the inhibition is inactive: -24.8%. As to `CC(C)(C)C(=O)NC(Sc1ncccn1)C(Cl)(Cl)Cl` (stereo unspecified), the inhibition was inactive: 13.2%. Then `O=P1(Nc2ncccn2)COc2ccccc2OC1`, with inactive: -3.73%; and `Cc1ccc(S(=O)(=O)N(CCCN)CCCc2c(C)nc(N)[nH]c2=O)cc1`, with inactive: 12.3%; and `O=P1(Nc2ccc(Br)cn2)COc2ccccc2OC1`, with inactive: 15.5%.

With `NS(=O)(=O)c1cccc(NC(=O)COC(=O)C(O)(c2ccccc2)c2ccccc2)c1`, the inhibition is inactive: -1.7%.

Turning to `O=[As](O)(c1cccs1)c1cccs1`, the inhibition was inactive: -12.6%.

Take `Cc1ccc(OCC(=O)OC2CN3CCC2CC3)cc1` (stereo unspecified): the inhibition was inactive: -11.2%. Then `Nc1cccc([As](=O)(O)c2ccccc2)c1`, with inactive: -0.4%; and `Cc1nn(-c2ccccc2)c2c1P(=O)(N1CCOCC1)N(C)C(c1ccccc1)=N2` (stereo unspecified), with inactive: 16%. Then `CC1CCC(C(C)C)C(OP(=O)(Nc2ccccn2)c2ccccc2)C1` (stereo unspecified), with inactive: 12.1%. Consider `Cc1ccc(C(=O)OC2CN3CCC2CC3)cc1` (stereo unspecified), for which the inhibition was inactive: 19.4%. With `O=C(/C=C/c1ccccc1)OC1CN2CCC1CC2` (stereo unspecified), the inhibition was inactive: -0.69%. As for `CCCC1OP(=O)(Nc2ccccc2)OCC1CC` (stereo unspecified), the figure is inactive: -11%. Then `CN(C)C1(CNC(=O)c2ccc(S(C)(=O)=O)cc2)CCCCC1`, with inactive: -2.69%. `NC(=O)Nc1ccc([As](=O)(O)O)cc1`: the inhibition was inactive: -15.2%. Regarding `CN(C)C(=O)c1cc([N+](=O)[O-])cc2c1-c1c(cc([N+](=O)[O-])cc1[N+](=O)[O-])C2=O`, the inhibition was inactive: 15.6%. Then `O=[N+]([O-])c1ccc2c(c1)nnn2O`, with inactive: 5.91%; and `CN(C(=O)Cc1ccc(Cl)c(Cl)c1)[C@H]1CC[C@@]2(CCCO2)C[C@@H]1N1CCCC1`, with inactive: -5.88%. As for `N#CCCN(C(=O)COC(=O)C(O)(c1ccccc1)c1ccccc1)c1ccc(F)cc1`, the figure is inactive: 11.9%; as for `CCOP1(=S)c2c(C)nn(CCC#N)c2N=C(c2ccc(F)cc2)N1C` (stereo unspecified), inactive: 13.8%; as for `CN(C(=O)Cc1ccccc1)[C@@H]1CC[C@]2(CCCO2)C[C@H]1N1CCCC1`, inactive: -10%. Regarding `CS(=O)(=O)c1cc([N+](=O)[O-])c2no[n+]([O-])c2c1`, the inhibition is inactive: -12.4%.

Take `CCOP1(=S)c2c(C)nn(CCC#N)c2N=C(c2ccccc2F)N1C` (stereo unspecified): the inhibition is inactive: -7.73%. On to `O=P(Nc1nccs1)(c1ccccc1)c1nc2ccccc2s1` (stereo unspecified), for which the inhibition was inactive: -10.2%. As for `O=P(Nc1nccs1)(Oc1ccccc1)Oc1ccccc1`, the inhibition is inactive: 14.1%.

For the molecule `Nc1ccccc1[As](=O)(O)c1ccccc1`, the inhibition was inactive: 10.5%. Regarding `O=C(O)COc1ccc([As](=O)(O)O)cc1[N+](=O)[O-]`, the inhibition is inactive: 9.54%. For `CCCOP(=S)(Nc1nc(N)cc(=O)[nH]1)OCCC`, the inhibition was inactive: 6.88%.

`Nc1cccc2c([As](=O)(O)O)cccc12`: the inhibition is inactive: -18%. As for `Cc1ccc(NCCc2c([N+](=O)[O-])cc([N+](=O)[O-])cc2[N+](=O)[O-])cc1`, the figure is inactive: 2.24%; as for `COc1cc(C2NCCC3(OCCO3)C2(C)C)cc(OC)c1OC` (stereo unspecified), inactive: 16.5%.

Regarding `CCOP(=O)(Nc1cccc2ccccc12)OCC`, the inhibition was inactive: -54.1%. Then `COc1cc(C(=O)NCC2(N3CCOCC3)CCCCC2)cc(Cl)c1OC(C)C`, with inactive: 10.1%; and `O=[As](O)(O)c1cccnc1`, with inactive: 12.9%. Then `CS(=O)(=O)c1ccc(Cl)c(NC(=O)COC(=O)C(O)(c2ccccc2)c2ccccc2)c1`, with inactive: -21.5%; and `O=C(OC1CN2CCC1CC2)c1ccc(Cl)cc1` (stereo unspecified), with inactive: 15.5%; and `O=[As](O)(c1cccc(O)c1)c1cccc(O)c1`, with inactive: 4.17%. As for `Cc1cccc(OCC(=O)OC2CN3CCC2CC3)c1` (stereo unspecified), the figure is inactive: 17.2%.

Consider `COc1ccc(N/C(=N/P(=O)(N2CCOCC2)N2CCOCC2)N2CCOCC2)cc1`, for which the inhibition is inactive: 2.76%. On to `O=[N+]([O-])c1cc(Oc2ccc([N+](=O)[O-])cc2C(F)(F)F)cc([N+](=O)[O-])c1`, for which the inhibition is inactive: 6.34%. `O=C(OC1CN2CCC1CC2)C12CC3CC(CC(C3)C1)C2` (stereo unspecified): the inhibition is inactive: 12.1%. Then `Cc1cc(=O)[nH]c(N[N+](=O)[O-])n1`, with inactive: 8.51%. `Cc1c2c(nc3ccccc13)SC(C(Cl)Cl)C2` (stereo unspecified): the inhibition was inactive: -0.58%. As for `COc1ccc2nc(NP(=O)(c3ccccc3)c3ccccc3)sc2c1`, the figure is inactive: 12.8%. In the case of `COc1cc(I)ccc1[As](=O)(O)O`, the inhibition was inactive: 4.59%. Then `O=P1(N(CCCl)CCCl)OCCCN1CCCl` (stereo unspecified), with inactive: -8.95%; and `O=P1(N(CCCl)CCCl)Nc2ccccc2N1`, with inactive: -124%; and `CC(C)c1ccc(OP(=O)(Nc2ccccn2)Oc2ccccc2F)cc1` (stereo unspecified), with inactive: 19.8%. As for `COC(=O)C1(C)COP(=O)(N2CCCCCC2)OC1` (stereo unspecified), the figure is inactive: -0.97%.

As to `ClCCSc1nnc(-c2cccnc2)o1`, the inhibition is inactive: -5%. As for `O=C(OC1CN2CCC1CC2)c1cccc2[nH]cnc12` (stereo unspecified), the inhibition was inactive: -11.8%. With `CCN(CC)C(=S)SC(NC=O)C(Cl)(Cl)Cl` (stereo unspecified), the inhibition is inactive: 13.7%. `CC(C)NC(=O)NP(=O)(Oc1ccccc1)Oc1ccccc1`: the inhibition is inactive: -0.21%.

`O=[N+]([O-])c1cc([N+](=O)[O-])c(-c2ccn[nH]2)s1`: the inhibition is inactive: 7.56%. Then `O=[As](O)(c1ccc(O)cc1)c1ccccc1O`, with inactive: 11%. Take `C[As](=O)(O)c1cccc(C(=O)O)c1`: the inhibition is inactive: 3.92%. On to `COc1cc(C(=O)NCC2(N3CCOCC3)CCCCC2)ccc1OCC(C)C`, for which the inhibition was inactive: 7.69%. As for `O=[N+]([O-])c1ccc(-c2cc([N+](=O)[O-])c(O)c([N+](=O)[O-])c2)cc1`, the figure is inactive: 3.05%; as for `Cc1ccc2nc3c(c(C)c2c1)CC(C(Cl)Cl)S3` (stereo unspecified), inactive: -29.7%; as for `Cc1ccc(OP(=O)(Nc2ccc([N+](=O)[O-])cn2)Oc2ccc(C)cc2)cc1`, inactive: -5.11%.

Regarding `CCOC(=O)Nc1cccc([As](=O)(O)O)c1`, the inhibition is inactive: -5.12%. Then `O=[N+]([O-])c1ccc(Nc2ccc(Oc3ccc([N+](=O)[O-])cc3[N+](=O)[O-])cc2)c([N+](=O)[O-])c1`, with inactive: 1.07%; and `O=P(Nc1ccccn1)(c1cccc2ccccc12)c1cccc2ccccc12`, with inactive: 13.4%. Then `Cc1cc(SC(NC=O)C(Cl)(Cl)Cl)ncn1` (stereo unspecified), with inactive: 1.33%.

Regarding `CC1CCNP(=O)(N(CCCl)CCCl)O1` (stereo unspecified), the inhibition is inactive: -0.75%. As for `CCOC(=O)Nc1ccc([As](=O)(O)O)c(O)c1`, the figure is inactive: 5.62%; as for `O=C(O)C(O)c1ccc(N(CCCl)CCCl)cc1` (stereo unspecified), inactive: -18.6%. Then `CCCCOc1ccc(C(=O)NCC2(N3CCCCC3)CCCCC2)cc1OC`, with inactive: -14.5%. Turning to `Cc1cc(SC(NC(=O)c2ccccc2)C(Cl)(Cl)Cl)nc(C(C)C)n1` (stereo unspecified), the inhibition was inactive: 12.7%. As for `COP(=O)(OC)N1CC1c1ccccc1` (stereo unspecified), the figure is inactive: -0.47%; as for `CCOC(=O)c1ccc(NC(=O)C(C)(CCl)SC)cc1` (stereo unspecified), inactive: -38.4%; as for `O=C(OC1CN2CCC1CC2)c1cccc([N+](=O)[O-])c1` (stereo unspecified), inactive: 9.84%. With `CSc1ccc(Nc2c([N+](=O)[O-])cc([N+](=O)[O-])cc2[N+](=O)[O-])cc1`, the inhibition was inactive: -21%. As for `CCC(C)N(CC(C)C)C(=S)SC(NC(C)=O)C(Cl)(Cl)Cl` (stereo unspecified), the figure is inactive: -9.4%.

For `COP1(=S)c2c(C)nn(CCC#N)c2N=C(c2ccc(F)cc2)N1C` (stereo unspecified), the inhibition is inactive: -4.11%. With `COC(=O)C1(C)COP(=O)(N2CCCC2)OC1` (stereo unspecified), the inhibition was inactive: 13.2%.

Take `O=C(COc1ccccc1)OC1CN2CCC1CC2` (stereo unspecified): the inhibition is inactive: -13.4%. Then `O=C(Nc1ccncc1[N+](=O)[O-])c1ccc([N+](=O)[O-])cc1[N+](=O)[O-]`, with inactive: 22.4%; and `O=C(O)C(=O)c1ccc(N(CCCl)CCCl)cc1`, with inactive: 5.03%.
